Source: patent EP3442964B1, “NOVEL N-[(PYRIMIDINYLAMINO)PROPANYL]-AND N [(PYRAZINYLAMINO)PROPANYL]ARYLCARBOXAMIDES” (Boehringer Ingelheim International GmbH, priority 2016, dated 2017)

By UniProt entry, the sequences of proteins in these tests, tags left out.
UniProt O43613, whole entry, species assumed: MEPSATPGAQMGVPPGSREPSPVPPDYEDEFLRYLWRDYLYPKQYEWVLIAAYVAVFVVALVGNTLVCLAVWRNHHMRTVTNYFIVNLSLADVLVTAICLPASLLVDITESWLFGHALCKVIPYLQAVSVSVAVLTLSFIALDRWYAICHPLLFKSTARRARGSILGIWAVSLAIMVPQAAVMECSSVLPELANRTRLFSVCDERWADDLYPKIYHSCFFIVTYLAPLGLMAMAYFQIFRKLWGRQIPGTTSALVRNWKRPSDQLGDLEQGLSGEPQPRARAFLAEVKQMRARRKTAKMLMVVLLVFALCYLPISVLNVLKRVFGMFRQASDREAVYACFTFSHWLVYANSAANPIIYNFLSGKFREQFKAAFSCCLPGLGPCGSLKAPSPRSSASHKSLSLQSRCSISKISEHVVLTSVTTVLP
UniProt P08183, whole entry: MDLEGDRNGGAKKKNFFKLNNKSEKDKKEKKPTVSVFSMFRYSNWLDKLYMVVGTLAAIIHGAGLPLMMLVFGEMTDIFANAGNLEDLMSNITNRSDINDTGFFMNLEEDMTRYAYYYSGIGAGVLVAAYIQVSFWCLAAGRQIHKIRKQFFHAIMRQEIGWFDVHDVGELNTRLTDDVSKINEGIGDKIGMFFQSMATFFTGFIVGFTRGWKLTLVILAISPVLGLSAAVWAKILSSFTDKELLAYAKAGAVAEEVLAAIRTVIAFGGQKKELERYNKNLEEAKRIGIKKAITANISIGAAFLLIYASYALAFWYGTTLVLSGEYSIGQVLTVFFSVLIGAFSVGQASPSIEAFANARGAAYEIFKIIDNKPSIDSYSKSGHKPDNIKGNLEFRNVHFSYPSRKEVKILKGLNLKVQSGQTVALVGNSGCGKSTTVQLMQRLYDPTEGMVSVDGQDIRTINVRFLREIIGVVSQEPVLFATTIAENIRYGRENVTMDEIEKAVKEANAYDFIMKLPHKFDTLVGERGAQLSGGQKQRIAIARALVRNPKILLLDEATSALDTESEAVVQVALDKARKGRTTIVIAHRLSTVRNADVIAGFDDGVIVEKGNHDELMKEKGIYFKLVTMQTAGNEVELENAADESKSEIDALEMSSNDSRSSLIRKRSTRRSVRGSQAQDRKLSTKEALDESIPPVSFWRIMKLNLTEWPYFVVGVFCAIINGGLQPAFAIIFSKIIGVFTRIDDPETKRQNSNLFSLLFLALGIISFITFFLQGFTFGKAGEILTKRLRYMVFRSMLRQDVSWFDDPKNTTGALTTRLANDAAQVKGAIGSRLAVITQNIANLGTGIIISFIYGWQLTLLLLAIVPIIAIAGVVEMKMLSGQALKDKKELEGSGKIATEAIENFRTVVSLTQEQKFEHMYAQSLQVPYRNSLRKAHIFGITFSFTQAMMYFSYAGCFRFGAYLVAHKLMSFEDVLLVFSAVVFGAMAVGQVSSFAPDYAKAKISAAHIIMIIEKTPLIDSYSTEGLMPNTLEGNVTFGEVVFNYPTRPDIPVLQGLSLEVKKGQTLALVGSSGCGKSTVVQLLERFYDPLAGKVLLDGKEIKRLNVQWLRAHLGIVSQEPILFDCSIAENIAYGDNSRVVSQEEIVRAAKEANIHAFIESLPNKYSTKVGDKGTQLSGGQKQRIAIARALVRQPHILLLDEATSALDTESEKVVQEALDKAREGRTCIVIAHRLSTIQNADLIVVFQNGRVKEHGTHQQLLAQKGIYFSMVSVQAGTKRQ
UniProt O43614, whole entry: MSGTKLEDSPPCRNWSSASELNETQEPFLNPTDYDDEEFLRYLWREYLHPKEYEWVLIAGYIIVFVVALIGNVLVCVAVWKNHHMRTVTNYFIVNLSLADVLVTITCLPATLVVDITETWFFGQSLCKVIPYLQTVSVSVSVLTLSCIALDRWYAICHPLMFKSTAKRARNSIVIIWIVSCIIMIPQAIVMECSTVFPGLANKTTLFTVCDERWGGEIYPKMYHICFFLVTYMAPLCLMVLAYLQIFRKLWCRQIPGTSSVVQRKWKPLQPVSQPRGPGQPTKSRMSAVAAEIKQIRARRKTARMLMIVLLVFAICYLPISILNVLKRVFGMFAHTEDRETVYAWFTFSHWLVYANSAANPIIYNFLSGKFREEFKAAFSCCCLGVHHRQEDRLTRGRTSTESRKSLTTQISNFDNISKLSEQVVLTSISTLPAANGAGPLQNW

How the values were obtained:
OX1R = OX1R (Homo sapiens, UniProt O43613); experiment: OX1R assay of WO2013/187466 (fluorescence measurement of intracellular Ca2+ changes); type: cell-based; conditions: from IC50 values as described in WO2013/187466
human MDR1 P-gp = biological target: T1, human MDR1 P-gp (Homo sapiens, UniProt P08183); experiment: Assay D: efflux in MDCK cells transfected with the human MDR1 gene; type: in vitro ADME; conditions: MDCK-MDR1 monolayers, pH 7.4, 37°C, read-out: Data as determined in Assay D: MDCK efflux ratio (BA/AB)
T1 construct: expressed in transfected cells; host or cells: MDCK (MDCK-MDR1)
Experimental: The MDCK assay provides information on the potential of a compound to pass the blood brain barrier. Permeability measurements across polarized, confluent MDCK-MDR1 cell monolayers grown on permeable filter supports are used as an in vitro absorption model: apparent permeability coefficients (PE) of the compounds across the MDCK-MDR1 cell monolayers are measured (pH 7.4, 37°C) in apical-to-basal (AB) and basal-to-apical (BA) transport direction. The AB permeability (PEAB) represents drug absorption from the blood into the brain and the BA permeability (PEBA) drug efflux from the brain back into the blood via both, passive permeability as well as active transport mechanisms mediated by efflux and uptake transporters that are expressed on the MDCK-MDR1 cells, predominantly by the overexpressed human MDR1 P-gp. Identical or similar permeabilities in both transport directions indicate passive permeation, vectorial permeability points to additional active transport mechanisms. Higher PEBA than PEAB (PEBA/PEAB > 5) indicates the involvement of active efflux mediated by MDR1 P-gp, which might compromises the goal to achieve sufficient brain exposure. […]
Apparent permeability coefficients (PE) of the compounds across the MDCK-MDR1 cell monolayers are measured (pH 7.4, 37°C) in apical-to-basal (AB) and basal-to-apical (BA) transport direction. […]

OX2R = OX2R (Homo sapiens, UniProt O43614); conditions: as described in WO2013/187466; agonist 3 nM modified orexin A; cited from earlier work

Row | OX2R IC50/OX1R IC50 (OX1R) | efflux ratio (human MDR1 P-gp) | Structure (SMILES) | IC50 (OX2R) [nM]
1 | 411 | 0.8 | CCN(C(=O)c1cc(F)ccc1-c1ncccn1)[C@@H](C)Cn1nnc(-c2ccc(F)cc2)n1 [Example 70 in WO2013/187466, reference compound] | 
2 |  |  | CCN(C(=O)c1nc(C)ccc1-c1ncccn1)[C@@H](C)Cn1nnc(-c2ccc(F)cc2)n1 [Example 69 in WO2013/187466, reference compound] | 1900
